Active and inactive are the calls of the source. The rule behind the calls is not given here.
Species on record: Homo sapiens

pIC50	SMILES
inactive	O=C(c1ccc(OCCN2CCCCC2)cc1)c1c(-c2ccc(O)cc2)sc2cc(O)ccc12 [RALOXIFENE]
inactive	Cc1ccccc1C(=O)c1sc2cc(O)ccc2c1Oc1ccc(OCCN2CCCCC2)cc1

From ChEMBL document CHEMBL4354825, “Design and Synthesis of Basic Selective Estrogen Receptor Degraders for Endocrine Therapy Resistant Breast Cancer” (J Med Chem, 2019)
